Assay results: PMC9822058, “In Vitro Evaluation of α-amylase and α-glucosidase Inhibition of 2,3-Epoxyprocyanidin C1 and Other Constituents from Pterocarpus erinaceus Poir” (Molecules, 2022)

Sequences of proteins named here, by UniProt entry; tags and fusion partners are left off. Residues count along the entry.
UniProt P06278, 30-512: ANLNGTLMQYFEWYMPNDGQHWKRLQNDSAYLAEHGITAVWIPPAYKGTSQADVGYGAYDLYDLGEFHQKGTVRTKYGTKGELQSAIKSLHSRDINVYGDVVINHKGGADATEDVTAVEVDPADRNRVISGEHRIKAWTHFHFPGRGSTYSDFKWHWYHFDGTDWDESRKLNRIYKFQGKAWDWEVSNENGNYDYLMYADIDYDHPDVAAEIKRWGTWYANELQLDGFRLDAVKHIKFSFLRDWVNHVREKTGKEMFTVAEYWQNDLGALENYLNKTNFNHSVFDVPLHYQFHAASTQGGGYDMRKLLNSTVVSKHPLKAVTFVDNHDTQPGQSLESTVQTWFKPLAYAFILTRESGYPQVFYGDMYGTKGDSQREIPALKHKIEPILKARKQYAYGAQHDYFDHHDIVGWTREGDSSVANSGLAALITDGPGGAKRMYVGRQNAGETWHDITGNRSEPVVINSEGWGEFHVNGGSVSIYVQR

Target: α-amylase from Bacillus licheniformis (Bacillus licheniformis, UniProt P06278)
Assay: biochemical
Description: The α-amylase inhibitory activity was evaluated by using the starch– iodine method with some modifications. The enzyme α-amylase from Bacillus licheniformis was used and enzyme solution was prepared with phosphate buffer (20 mM pH = 6.9 phosphate buffer prepared with 6 mM NaCl); then, 50 µL of α-amylase and 25 µL of different concentrations of compound or extract solutions were mixed in a 96-well microplate. The mixture was pre-incubated for 10 min at 37 °C; then, 50 µL of starch solution (0.05%) was added and incubated for 10 min at 37 °C. Following incubation, the reaction was completed by adding HCl (0.1 M, 25 µL) and Lugol (100 µL) solutions, and the absorbance was recorded at 565 nm.
Acarbose was used as a standard compound for both analyses.

C[C@H]1O[C@H](O[C@H]2[C@H](O)[C@@H](O)[C@@H](O[C@H]3[C@H](O)[C@@H](O)C(O)O[C@@H]3CO)O[C@@H]2CO)[C@H](O)[C@@H](O)[C@@H]1N[C@H]1C=C(CO)[C@@H](O)[C@H](O)[C@H]1O (stereo partly shown) [Acarbose, reference compound]
IC50: 40.9 µM
